Results from paper PMC9858421 (Journal of Enzyme Inhibition and Medicinal Chemistry, 2023).
“Also recorded” adds a separate entry of the source. Read-outs that look alike come from different tables or passages of the source.

The chains behind the UniProt entries cited, without tags or fusion partners.
UniProt P21796, whole entry: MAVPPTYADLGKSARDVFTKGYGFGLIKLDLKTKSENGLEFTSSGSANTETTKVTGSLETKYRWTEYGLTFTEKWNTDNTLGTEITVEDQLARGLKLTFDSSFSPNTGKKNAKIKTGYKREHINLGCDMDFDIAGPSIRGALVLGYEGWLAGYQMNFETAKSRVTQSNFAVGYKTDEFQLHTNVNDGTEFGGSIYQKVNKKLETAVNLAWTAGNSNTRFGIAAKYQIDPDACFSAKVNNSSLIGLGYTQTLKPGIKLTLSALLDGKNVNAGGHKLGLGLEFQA

Columns and labels:
[1] = target: hVDAC1 (Homo sapiens, UniProt P21796); assay: NanoDSF thermal shift; assay type: binding; conditions: hVDAC1 in LDAO; compared to hVDAC1 alone at 0% or 5% DMSO
[2] = tested on: VDAC1; conditions: PLB, cited from earlier work

Compound | Tm shift in NanoDSF (direction / significance, in words) [1] | Effect(s) on activity ([2]; photoaffinity labelling, MST) | Effect(s) on activity [2]
CCC(C)n1ncn(-c2ccc(N3CCN(c4ccc(OCC5COC(Cn6cncn6)(c6ccc(Cl)cc6Cl)O5)cc4)CC3)cc2)c1=O (stereo not shown) [Itraconazole] | not been confirmed as VDAC1 ligands; also recorded: no significant changes in Tm | Reduces conductance | –
CC(=O)Oc1ccccc1C(=O)O [Aspirin] | increase the Tm | – | Reduces conductance Induces VDAC-HK II detachment
